Experiment [1] concerns the target HLA-A2 MHC-I (HLA-A*0204) (Homo sapiens, UniProt P04439, D140Y/D185E/D98H/E176V/E277Q/G131W/G231S/I119V/I121M/I166T/I218V/L300P/L318F/N151K/N90K/P208A/P217A/Q86G/Q94H/R138H/R169H/T345S). In words: biochemical.
For experiment [2], the system named is EL4-A2 target cells. As to the kind of experiment: 51Cr release CTL assay with splenocytes of peptide-immunised HLA-A2 transgenic mice, peptide-pulsed EL4-A2 targets. In kind it is in vivo, mouse. The note with it: for specific lysis of EL4-A2 targets pulsed with the immunising peptide: splenocytes restimulated in vitro with the same peptide. As to the method:
Usually 3 mice were injected per query peptide. CTL was measured at day 10.
LPS blasts were prepared from 1 normal spleen (non-immunised HLA-A2 mouse) 3-5×10^6 splenocytes per ml of UPS medium in a final volume of 40 ml. LPS medium was RPMI 1640, 1% penicillin-streptomycin, 2% Hepes, 10% FCS, 7 μg/100 ml medium of dextran sulphate (Pharmacia #17034-01) and 25 ug/100 ml medium of LPS (Sigma #L-2387). After 3 days of culturing the splenocytes in LPS medium, the LPS blasts were treated with mitomycin to inhibit cell division. LPS blasts were treated with mitomycin at the same time as they were loaded with the target peptide. 2 ml of blasts were mixed with 20 μg of peptide and 100 μg of mitomycin in PBS. Incubate 1 hour at 37° C. in 5% CO2 in an Incubator. LPS blasts were then washed in media and adjusted to 2×10^7 cells/ml of medium (RPMI 1640, P+S, Hepes, 50 μM mercaptoethanol).
In the present invention EL-4-A2 or EL4 cells or EL4-A2 kb Cell line are interchangeable and described as follows: The plasmid pA2 kb is a kind gift from Nikolas Holmes. 10^7 EL4 cells (ATCC TIB-39) are electroporated with 20 μg of pA2 kb using the Gene Pulser system (BIO-RAD) (Potter et al., 1993). Electroporation was performed according to the manufactor's recommendations. Selection is undertaken after 48 hr with 600 μg/ml geneticin (G418 Gibco BRL). Cell clones are screened with the HLA-A2 specific monoclonal antibody (BB7.2 ATCC-HB82) by FACS analysis.
The method to validate an improved epitope for its ability to raise a CTL immune response that cross-reacts with the natural epitope is similar to that described in example 7. A2 transgenic immunisation: Mice were immunised with the selected improved epitope using 100 μl out of 600μ of a mixture containing IFA (30%), HBV T-helper epitope (960 μg) and test epitope (800 μg). CTL was measured at day 10 post-immunisation.
In vitro simulation of CTL effectors: Splenocytes obtained from the immunised mice were divided in two parts. The first half of the splenocytes were stimulated in the presence of LPS blasts loaded with the related natural epitope peptide.

The subject of experiment [3] is EL4 target cells (HLA-A2 negative). The settings on record: negative control targets.

As usually defined, the Kd is the free concentration of one partner at which half of the binding sites on the other are occupied at equilibrium, for simple one-to-one binding. Lower therefore signals tighter binding.

Take `CC[C@H](C)[C@H](NC(=O)[C@H](CC(C)C)NC(=O)[C@H](CCC(N)=O)NC(=O)[C@H](CC(=O)O)NC(=O)[C@H](C)NC(=O)[C@H](CC(C)C)NC(=O)CN)C(=O)N[C@@H](Cc1c[nH]cn1)C(=O)N[C@H](C(=O)O)C(C)C` [8.11mod]: in experiment [1], the Kd amounted to 32 nM. Same read-out and setting: as for `CC(C)C[C@H](NC(=O)[C@@H](N)CCCCN)C(=O)N[C@@H](CCCCN)C(=O)N1CCC[C@H]1C(=O)N1CCC[C@H]1C(=O)N[C@@H](CC(C)C)C(=O)N1CCC[C@H]1C(=O)N[C@@H](CO)C(=O)N[C@H](C(=O)O)C(C)C` [8.10mod], the figure is 6.4 nM.

With `CC(C)C[C@H](NC(=O)[C@H](CCCCN)NC(=O)[C@H](Cc1ccccc1)NC(=O)[C@H](CS)NC(=O)[C@H](Cc1c[nH]c2ccccc12)NC(=O)CNC(=O)[C@H](Cc1ccccc1)NC(=O)[C@H](CC(C)C)NC(=O)[C@@H](N)CC(C)C)C(=O)O` [8.45], the “specific lysis of EL4A2 targets pulsed with the natural peptide by splenocytes induced against the improved epitope” value in experiment [2] (E:T ratio of 50, restimulated 5 days in vitro) was 14%. For the same compound, the “specific lysis of EL4-A2 targets pulsed with the immunising peptide” value in experiment [2] (E:T ratio of 50) is listed as 90%. As to ILKEPVHGV [H3, reference compound], the “specific lysis of EL4-A2 targets pulsed with the immunising peptide” value in experiment [2] (E:T ratio of 50) is recorded as greater than 10%. Further, the “unspecific lysis of peptide-loaded HLA-A2 negative EL4 target cells” value in experiment [3] is reported as “No unspecific lysis”. With `CC(C)C[C@H](NC(=O)[C@@H](N)CC(N)=O)C(=O)N[C@@H](Cc1c[nH]c2ccccc12)C(=O)N[C@@H](C)C(=O)N[C@H](C(=O)N[C@@H](Cc1c[nH]cn1)C(=O)N[C@@H](C)C(=O)N[C@@H](CS)C(=O)N[C@H](C(=O)O)C(C)C)[C@@H](C)O` [8.75mod], the Kd in experiment [1] came to 23 nM. With `CC(C)C[C@H](NC(=O)[C@H](CC(C)C)NC(=O)[C@@H](N)CCCNC(=N)N)C(=O)N[C@@H](CC(N)=O)C(=O)N[C@@H](C)C(=O)N[C@@H](Cc1c[nH]c2ccccc12)C(=O)N[C@H](C(=O)N[C@@H](CCCCN)C(=O)N[C@H](C(=O)O)C(C)C)C(C)C` [8.54], the “CTL response to the peptide used for immunisation” value in experiment [2] (FIG. 3, seen in one of 4 mice, less response in mouse 2) is listed as “clear response”. Moreover, in experiment [2] (FIG. 3, targets pulsed with 8.54Nat, one of 4 mice), the “cross-reaction of CTL with the related natural epitope” value is reported as “cross-reaction to the related natural epitope”. Also, the “unspecific lysis of peptide-loaded HLA-A2 negative EL4 target cells” value in experiment [3] is reported as “do not react”. With `CC(C)C[C@H](NC(=O)[C@H](CCCCN)NC(=O)[C@H](Cc1ccccc1)NC(=O)[C@H](CS)NC(=O)[C@H](Cc1c[nH]c2ccccc12)NC(=O)CNC(=O)[C@H](Cc1ccccc1)NC(=O)[C@H](CC(C)C)NC(=O)[C@@H](N)CC(C)C)C(=O)O` [8.45mod], the Kd in experiment [1] stood at 25 nM.

(Values after patent publication US20040072162A1, “Hiv peptides and nucleic acids encoding them for diagnosis and control of hiv infection” (priority 2000, published 2004).)
